{"sequences": {"note": "Protein sequences, listed by entry. Tags and fused reporters are not part of them.", "UniProt Q01959, whole entry C306A/T316C": "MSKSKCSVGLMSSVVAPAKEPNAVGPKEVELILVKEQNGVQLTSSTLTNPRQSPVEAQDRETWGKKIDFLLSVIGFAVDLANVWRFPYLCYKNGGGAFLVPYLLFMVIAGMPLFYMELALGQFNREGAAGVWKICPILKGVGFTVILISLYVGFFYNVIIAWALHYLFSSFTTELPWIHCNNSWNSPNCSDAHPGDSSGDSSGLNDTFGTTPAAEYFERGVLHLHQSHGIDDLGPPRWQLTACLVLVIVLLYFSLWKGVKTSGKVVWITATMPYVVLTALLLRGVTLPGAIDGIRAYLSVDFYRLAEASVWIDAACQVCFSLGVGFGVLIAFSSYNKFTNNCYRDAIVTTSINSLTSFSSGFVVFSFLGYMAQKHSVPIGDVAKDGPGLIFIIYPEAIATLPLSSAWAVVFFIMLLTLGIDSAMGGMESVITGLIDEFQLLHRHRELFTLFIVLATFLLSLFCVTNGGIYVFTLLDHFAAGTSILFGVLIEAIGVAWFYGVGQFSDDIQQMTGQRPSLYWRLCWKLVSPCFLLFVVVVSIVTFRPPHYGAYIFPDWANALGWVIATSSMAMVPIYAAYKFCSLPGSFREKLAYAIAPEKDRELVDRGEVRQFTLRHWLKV"}, "source": "paper PMC4297708", "about": "(Drug and alcohol dependence, 2014)", "origin": "cited, not measured here"}
{"biological_target": "T316C/C306A human DAT (Homo sapiens, UniProt Q01959, C306A/T316C)", "settings": "HEK293 cells; cocaine 100 μM, RTI-336 1.0 μM, RTI-371 1.0 μM, BZT 100 μM, JHW007 1.0 μM; Fig. 5B; ref Hiranita et al., 2014; cited from earlier work"}
{"compound": "CN1[C@@H]2CC[C@H]1C[C@@H](OC(c1ccccc1)c1ccccc1)C2", "note": "[BZT, benztropine]", "effect on DAT labeling (cysteine accessibility of DAT T316C/C306A)": "reduced DAT labeling"}
{"compound": "CCCCN1[C@@H]2CC[C@H]1CC(OC(c1ccc(F)cc1)c1ccc(F)cc1)C2", "note": "(some centres unmarked) [JHW 007]", "effect on DAT labeling (cysteine accessibility of DAT T316C/C306A)": "reduced DAT labeling"}
{"compound": "Cc1ccc(-c2cc([C@@H]3C4CCC(C[C@@H]3c3ccc(Cl)cc3)N4C)on2)cc1", "note": "(some centres unmarked) [RTI-336]", "effect on DAT labeling (cysteine accessibility of DAT T316C/C306A)": "significantly increased DAT labeling"}
{"compound": "Cc1ccc([C@H]2C[C@@H]3CC[C@H]([C@H]2c2cc(-c4ccc(Cl)cc4)no2)N3C)cc1", "note": "[RTI-371, 3β-(4-methylphenyl)-2β-[3-(4-chlorophenyl)isoxazol-5-yl]tropane]", "effect on DAT labeling (cysteine accessibility of DAT T316C/C306A)": "significantly increased DAT labeling"}
{"compound": "COC(=O)[C@H]1[C@@H](OC(=O)c2ccccc2)C[C@@H]2CC[C@H]1N2C", "note": "[cocaine]", "effect on DAT labeling (cysteine accessibility of DAT T316C/C306A)": "significantly increased DAT labeling"}
